These are literature values, as cited in PubChem BioAssay AID1811 (Shanghai Institute of Organic Chemistry, 2009).

The other results are listed elsewhere or left out. Activity calls are given as the source filed them. Where no limit is named, active and inactive come without a cut-off here.

The data set relates to aiia-like protein. The data set is described as follows: PubChem AID 1811. The note with it: PDB complex binding affinities from literature.

In the case of `N[C@H]1CCOC1=O`, the molecule was called active.
